Results: PubChem BioAssay AID1671190 (National Center for Advancing Translational Sciences (NCATS), 2021)
This is a selection; strong and weak results do not stand in their true shares. Inconclusive results are not listed. Entries that show only a call come without a potency. Activity calls are given as the source filed them. Calls come from the whole dose curve; as a rule, active = well fitted inhibition curve with a large enough effect; inconclusive = small, poorly fitted or top-dose-only effect, or another doubt; inactive = no such curve, though single readings can be large or run the other way.

Amino acid sequences for entries named in this document (tags omitted). A change or cut given only in a name is not applied to a line headed by its entry.
UniProt P18054: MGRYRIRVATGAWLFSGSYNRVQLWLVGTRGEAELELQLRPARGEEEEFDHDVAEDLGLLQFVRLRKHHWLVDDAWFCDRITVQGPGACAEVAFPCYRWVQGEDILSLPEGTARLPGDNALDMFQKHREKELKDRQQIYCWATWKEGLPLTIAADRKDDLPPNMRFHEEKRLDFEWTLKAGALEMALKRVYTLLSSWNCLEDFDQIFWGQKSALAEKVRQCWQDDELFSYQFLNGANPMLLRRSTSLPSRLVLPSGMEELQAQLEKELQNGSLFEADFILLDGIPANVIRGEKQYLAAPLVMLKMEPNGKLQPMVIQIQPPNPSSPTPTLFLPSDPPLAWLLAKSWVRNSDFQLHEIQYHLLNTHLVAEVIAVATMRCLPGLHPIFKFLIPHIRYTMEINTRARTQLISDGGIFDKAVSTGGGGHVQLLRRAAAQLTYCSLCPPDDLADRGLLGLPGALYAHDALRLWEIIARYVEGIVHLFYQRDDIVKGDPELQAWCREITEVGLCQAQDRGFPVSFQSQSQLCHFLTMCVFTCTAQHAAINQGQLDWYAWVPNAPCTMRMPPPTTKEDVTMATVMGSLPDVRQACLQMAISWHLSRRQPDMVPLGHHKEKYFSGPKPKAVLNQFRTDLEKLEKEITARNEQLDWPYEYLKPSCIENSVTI

Each compound was assayed against Polyunsaturated fatty acid lipoxygenase ALOX12 (Homo sapiens) (UniProt P18054) (assay: Primary qHTS assay for inhibitors of human arachidonate 12S-lipoxygenase (ALOX12): Round 2). Conditions: purified 12hLO, xylenol orange hydroperoxide absorbance; series mostly up to 108 µM.
Text: Assay Provider: Theodore R. Holman Ph.D. University of California, Santa Cruz, California Human lipoxygenase 12hLO is a member of the closely related lipoxygenase family of enzymes which catalyze the site-specific oxidation of arachidonic acid to various hormone precursor molecules and as such is a candidate for drug development in a variety of disease areas, such as cancer and inflammation. Inhibition of 12hLO activity was screened by utilizing arachidonic acid as a substrate. The extent of hydroperoxide product formation was measured by a secondary chromogenic reaction in which xylenol orange (XO, Sigma-Aldrich, cat. number 39,818-7) reacts with the ferric ions produced from the reaction between the hydroperoxide and ferrous ions. The Fe (III)-XO complex is characterized with red-shifted absorbance at 560 nm. A purified preparation of human 12hLO was supplied by Dr. Holman laboratory, University of California, Santa Cruz.
PROTOCOL TABLE SEQUENCE No. (e.g., 1, 2, 3, etc.); […] (e.g., Cells, Incubation, Reagent, etc.); VALUE; DESCRIPTION 1; Enzyme; 3 uL; 150 nM 12hLO enzyme solution dispensed in 1536-well Greiner black, clear bottom plates. 2; Compound; 23 nL; compounds and controls were added. 3; Incubate; 15 min; room temperature. 4; Substrate; 1 uL; 40 uM arachidonic acid (final concentration). 5; Incubate; 30 min; room temperature. 6; Reagent; 4 uL; Fe-XO solution was added to each well. 7; Incubation; 30 min; room temperature 8; Detector; absorbance; Read 1 at 405 nm absorbance using ViewLux (Perkin-Elmer) CCD imager. 9; Detector; absorbance; Read 2 at 573 nm absorbance using ViewLux (Perkin-Elmer) CCD imager. NOTES (numbers refer to sequence above) 1; 150 nM 12hLO (final concentration) in buffer solution (25 mM Hepes, 0.01% Triton X-100, pH 7.0) was dispensed in columns 1, 2, 5-48. Column 1 is neutral (100% activity). Buffer only was dispensed in columns 3 and 4 as no enzyme negative controls. The plates were covered with metal lids with gas-exchange holes. 2; Compounds were pin transferred via a Kalypsys Pin Tool (Wako USA) in column 5-48. Control compound was transferred in column 2, titration of nordihydroguaiaretic acid (NDGA, Sigma-Aldrich, N5023) with top concentration of 20 mM in DMSO then 1:3 dilution in duplicate. Dilution factor of 23 nL into 4 uL final assay volume. 3; Covered assay plates were incubated for 15 min at room temperature. 4; Substrate was added to start the reaction; 40 uM arachidonic acid (Sigma-Aldrich, St. Louis, MO) was dispensed throughout the plate. 6; Chromogenic detection reagent solution (divalent iron/xylenol orange, Fe-XO) was added to each well: 200 uM xylenol orange, 300 uM ferrous ammonium sulfate prepared freshly in 50 mM sulfuric acid. 8, 9; Two absorbance readouts were obtained at 405 nm and at 573 nm using a ViewLux high-throughput CCD plate imager (Perkin-Elmer). The 573 to 405 (Read 2 / Read 1) absorbance ratio was used to compute reaction progress.

| SMILES | Potency |
| --- | --- |
| Cc1ccc(N/C(=N/P(=O)(N2CCOCC2)N2CCOCC2)N2CCOCC2)cc1 | inactive |
| CC(C)CC(=O)NC(Sc1ccc(Cl)cc1)C(Cl)(Cl)Cl (stereo not drawn) | inactive |
| Nc1cc(N)c2nonc2c1[N+](=O)[O-] | inactive |
| Oc1ccccc1CNc1ccccn1 | inactive |
| CCOP(=O)(Nc1ccccc1)OCC | inactive |
| Cc1ccc(NP(=O)(Oc2ccccc2F)Oc2ccccc2F)nc1 | inactive |
| CN(C(=O)Cc1ccc(Cl)c(Cl)c1)[C@H]1CCCC[C@@H]1N1CCCC1 | inactive |
| CCn1c(=O)n(C2CCN(CC3CCCCCCC3)C[C@H]2CO)c2ccccc21 (stereo partly drawn) | inactive |
| O=C(O)c1ccccc1[As](=O)(O)O | inactive |
| CC(=O)Nc1ccc([As](=O)(O)O)cc1 | inactive |
| CCCC1OP(N)(=O)OCC1CC (stereo not drawn) | inactive |
| O=P(Nc1nc2ccc(Cl)cc2s1)(c1ccccc1)c1ccccc1 | inactive |
| CN(C(=O)Cc1ccccc1)C1CC[C@@]2(CCCO2)C[C@@H]1N1CCCC1 (stereo partly drawn) | inactive |
| CCN(N=Nc1nonc1N)c1nonc1N | inactive |
| Nc1cccc2ccc([As](=O)(O)O)cc12 | inactive |
| O=C(Nc1cc([As](=O)(O)O)ccc1O)c1ccccc1 | inactive |
| O=P1(N(CCCl)CCCl)OCCCS1 (stereo not drawn) | inactive |

| SMILES | Potency |
| --- | --- |
| O=[N+]([O-])c1cccc(NC2=NCC(CBr)S2)c1 (stereo not drawn) | inactive |
| COC(=O)C1(C)COP(=O)(Nc2ccccc2)OC1 (stereo not drawn) | inactive |
| O=C(O)CNc1ccc([As](=O)(O)O)cc1 | inactive |
| O=[N+]([O-])c1ncn(CCn2ncnc2[N+](=O)[O-])n1 | inactive |
| CC(=O)N1C2C3N(C(C)=O)C1C1N(C(C)=O)C(C(N1C(C)=O)N3C(C)=O)N2C(C)=O | inactive |
| Cc1ccc(NP(=O)(Oc2ccccc2)Oc2ccccc2)nc1 | inactive |
| O=[N+]([O-])c1cc([N+](=O)[O-])c(CCNc2ccccc2)c([N+](=O)[O-])c1 | inactive |
| COc1ccc(C2=NCC(CBr)S2)cc1 (stereo not drawn) | inactive |
| CC(C)=N/N=C(\N)N[N+](=O)[O-] | inactive |
| CC(C)c1nc(Nc2ccccc2)n(P(=O)(N(C)C)N(C)C)n1 | inactive |
| CN(C)C(=O)OCCc1n(C)cc[n+]1C | inactive |
| c1cc(-c2nn[nH]n2)ccc1-c1nn[nH]n1 | inactive |
| CC1CCN(C(=O)Oc2c(Cl)cc(Cl)c3cccnc23)CC1 | inactive |
| CC(=O)C1=CCCC2CCC1N2 (stereo not drawn) | inactive |
| Nc1ccc([As](=O)(O)c2ccc(N)cc2)cc1 | inactive |
| CCN(/C(=N/P(=O)(N1CCOCC1)N1CCOCC1)N1CCOCC1)c1ccc(OC)cc1 | inactive |
